From ChEMBL document CHEMBL6109139, “Rational Design of the First Dual Agonist at Trace Amine-Associated Receptor 1 and 5-HT2C Receptors Based on Binding Pocket Similarity for the Treatment of Schizophrenia and Alzheimer's Disease-Related Psychosis” (J Med Chem, 2025)

Tests used:
Format in all cases: cell-based
[1] = tested on: T1, Trace amine-associated receptor 1 (Homo sapiens), Q96RJ0 [F186A]; test: Agonist activity at TAAR1 F186A mutant (unknown origin) expressed in HEK293 cells assessed as increase in cAMP accumulation by Glosensor-based cAMP assay
T1 sequence (whole entry): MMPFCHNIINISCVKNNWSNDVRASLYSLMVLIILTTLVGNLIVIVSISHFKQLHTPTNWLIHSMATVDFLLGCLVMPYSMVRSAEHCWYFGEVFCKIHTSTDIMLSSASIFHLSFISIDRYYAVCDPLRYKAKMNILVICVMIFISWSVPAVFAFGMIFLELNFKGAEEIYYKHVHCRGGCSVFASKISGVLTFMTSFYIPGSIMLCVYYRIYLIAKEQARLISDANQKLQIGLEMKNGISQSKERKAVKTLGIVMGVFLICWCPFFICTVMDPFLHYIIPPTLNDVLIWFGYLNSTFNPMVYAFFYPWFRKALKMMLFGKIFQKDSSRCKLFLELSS

[2] = tested on: T2, Trace amine-associated receptor 1 (Homo sapiens), Q96RJ0 [Y294A]; test: Agonist activity at TAAR1 Y294A mutant (unknown origin) expressed in HEK293 cells assessed as increase in cAMP accumulation by Glosensor-based cAMP assay
T2 sequence (whole entry): T1 sequence (whole entry) with A186F, Y294A

[3] = tested on: T3, Trace amine-associated receptor 1 (Homo sapiens), Q96RJ0 [W264A]; test: Agonist activity at TAAR1 W264A mutant (unknown origin) expressed in HEK293 cells assessed as increase in cAMP accumulation by Glosensor-based cAMP assay
T3 sequence (whole entry): T1 sequence (whole entry) with A186F, W264A

[4] = tested on: T4, Trace amine-associated receptor 1 (Homo sapiens), Q96RJ0 [V184A]; test: Agonist activity at TAAR1 V184A mutant (unknown origin) expressed in HEK293 cells assessed as increase in cAMP accumulation by Glosensor-based cAMP assay
T4 sequence (whole entry): T1 sequence (whole entry) with V184A, A186F

[5] = tested on: T5, Trace amine-associated receptor 1 (Homo sapiens), Q96RJ0 [I290A]; test: Agonist activity at TAAR1 I290A mutant (unknown origin) expressed in HEK293 cells assessed as increase in cAMP accumulation by Glosensor-based cAMP assay
T5 sequence (whole entry): T1 sequence (whole entry) with A186F, I290A

[6] = tested on: T6, Trace amine-associated receptor 1 (Homo sapiens), Q96RJ0 [D103A]; test: Agonist activity at TAAR1 D103A mutant (unknown origin) expressed in HEK293 cells assessed as increase in cAMP accumulation by Glosensor-based cAMP assay
T6 sequence (whole entry): T1 sequence (whole entry) with D103A, A186F

Measured: Activity

c1cc2c(s1)[C@@H]1CNCCN1CC2
inactive: all assays above

Substitutions are numbered along the chain they refer to. Calls of active or inactive are those of the source.
